Measurements: BindingDB's records for doi:10.1016/0896-6273(93)90149-l (The Scripps Research Institute, 1993)

Protein sequences, listed by entry. Tags and fused reporters are not part of them.
UniProt P19327, whole entry: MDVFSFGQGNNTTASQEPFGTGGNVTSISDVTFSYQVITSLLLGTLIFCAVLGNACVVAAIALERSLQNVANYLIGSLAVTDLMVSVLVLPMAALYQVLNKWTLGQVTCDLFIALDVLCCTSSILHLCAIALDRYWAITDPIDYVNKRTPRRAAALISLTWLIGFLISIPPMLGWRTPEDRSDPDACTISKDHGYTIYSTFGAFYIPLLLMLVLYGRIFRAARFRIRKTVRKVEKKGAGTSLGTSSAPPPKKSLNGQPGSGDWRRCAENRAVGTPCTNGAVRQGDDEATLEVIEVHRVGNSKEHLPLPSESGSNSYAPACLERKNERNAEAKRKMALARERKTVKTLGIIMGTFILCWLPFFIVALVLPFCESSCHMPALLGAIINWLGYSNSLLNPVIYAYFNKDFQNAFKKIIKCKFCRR

Target: 5-hydroxytryptamine receptor 1A (Rattus norvegicus, UniProt P19327)

Compound: NCCc1c[nH]c2ccc(O)cc12 [[3H]-5-HT]
- Ki: 0.134 µM
